The results in this text go back to US7169931B2, “Cyclic compounds exhibiting thrombopoietin receptor agonism” (Shionogi & Co., Ltd., priority 2001, dated 2007).

The chains behind the UniProt entries cited, without tags or fusion partners. Residues count along the entry.
UniProt P40238, 26-635 limits assumed: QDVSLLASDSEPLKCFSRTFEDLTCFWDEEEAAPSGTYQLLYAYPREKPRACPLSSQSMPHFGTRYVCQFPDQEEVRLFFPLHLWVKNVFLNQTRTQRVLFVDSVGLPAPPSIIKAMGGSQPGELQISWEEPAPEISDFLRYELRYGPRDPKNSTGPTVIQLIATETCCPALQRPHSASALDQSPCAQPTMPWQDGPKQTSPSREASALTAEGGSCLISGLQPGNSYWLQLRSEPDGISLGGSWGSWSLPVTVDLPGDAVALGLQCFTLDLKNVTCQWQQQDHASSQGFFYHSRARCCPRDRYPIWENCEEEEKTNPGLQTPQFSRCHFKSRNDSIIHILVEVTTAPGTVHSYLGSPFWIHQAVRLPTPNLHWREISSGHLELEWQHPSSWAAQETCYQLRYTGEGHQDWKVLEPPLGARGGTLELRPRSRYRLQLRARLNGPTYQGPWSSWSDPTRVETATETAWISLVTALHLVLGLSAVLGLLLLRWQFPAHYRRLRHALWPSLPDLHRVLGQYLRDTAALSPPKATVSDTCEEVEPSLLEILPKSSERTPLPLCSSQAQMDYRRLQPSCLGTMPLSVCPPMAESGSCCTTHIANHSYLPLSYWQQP

Structures are written as SMILES.

This test deals with human TPO receptor (Homo sapiens, UniProt P40238). The test can be described thus: Thrombopoietic activity: proliferation of TPO dependent BaF/hTPOR cells (WST-1). To be noted: read-out: ED50; BaF/hTPOR cell line (BaF-B03 with human TPO receptor), without IL-3; 20 hours incubation + 4 hours WST-1, absorbance 450 nm; ED50 = half concentration of the concentration showing maximum thrombopoietic activity. (Formazan colour is commonly taken as a measure of viable cells.)

`O=C(Nc1nc(-c2ccc(Cl)c(Cl)c2)cs1)c1ccc2sc(C(=O)O)cc2c1`: the EC50 was found to be 595 nM.

Regarding `O=C(O)C1=Cc2ccc(C(=O)Nc3nc(-c4ccc(Cl)c(Cl)c4)cs3)cc2OC=C1`, the EC50 worked out at 1710 nM.

Take `Cc1c(C(=O)Nc2nc(-c3ccc(Cl)c(Cl)c3)cs2)oc2ccc(C(=O)O)cc12`: the EC50 was determined as 120 nM.

Take `O=C(O)c1ccc2cc(C(=O)Nc3nc(-c4ccc(Cl)c(Cl)c4)cs3)sc2c1`: the EC50 amounted to 960 nM.

Consider `O=C(O)C1=Cc2cc(C(=O)Nc3nc(-c4ccc(Cl)c(Cl)c4)cs3)ccc2OC=C1`, for which the EC50 was 5670 nM.

`O=C(Nc1nc(-c2ccc(Cl)c(Cl)c2)cs1)c1ccc2c(c1)OCCC(C(=O)O)C2` (stereo not shown): the EC50 amounted to 16600 nM.

As for `O=C(O)c1cc(O)c2cc(C(=O)Nc3nc(-c4ccc(Cl)c(Cl)c4)cs3)ccc2c1`, the EC50 was found to be 214 nM.
